Results reported in ChEMBL document CHEMBL5543102, “Allosteric Activation of α7 Nicotinic Acetylcholine Receptors by Novel 2-Arylamino-thiazole-5-carboxylic Acid Amide Derivatives for the Improvement of Cognitive Deficits in Mice” (J Med Chem, 2024).

Protein sequences, listed by entry. Tags and fused reporters are not part of them. Lines headed by an entry give the natural chain unless they say otherwise; changes in a name come on top.
UniProt P04757: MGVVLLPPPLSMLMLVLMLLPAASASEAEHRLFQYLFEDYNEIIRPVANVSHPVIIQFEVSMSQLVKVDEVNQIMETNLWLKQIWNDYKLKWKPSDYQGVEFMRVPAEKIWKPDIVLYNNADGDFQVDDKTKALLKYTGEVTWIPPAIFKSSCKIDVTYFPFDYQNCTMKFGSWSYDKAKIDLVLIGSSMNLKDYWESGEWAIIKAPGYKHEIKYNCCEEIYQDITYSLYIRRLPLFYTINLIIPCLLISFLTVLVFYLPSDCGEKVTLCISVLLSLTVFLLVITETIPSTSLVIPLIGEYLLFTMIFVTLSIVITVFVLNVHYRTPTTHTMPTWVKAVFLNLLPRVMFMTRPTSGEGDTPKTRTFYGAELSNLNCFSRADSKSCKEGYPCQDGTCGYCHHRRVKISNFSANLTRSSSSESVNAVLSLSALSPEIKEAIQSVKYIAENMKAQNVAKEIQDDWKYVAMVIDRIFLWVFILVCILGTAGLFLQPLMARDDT
UniProt P12392: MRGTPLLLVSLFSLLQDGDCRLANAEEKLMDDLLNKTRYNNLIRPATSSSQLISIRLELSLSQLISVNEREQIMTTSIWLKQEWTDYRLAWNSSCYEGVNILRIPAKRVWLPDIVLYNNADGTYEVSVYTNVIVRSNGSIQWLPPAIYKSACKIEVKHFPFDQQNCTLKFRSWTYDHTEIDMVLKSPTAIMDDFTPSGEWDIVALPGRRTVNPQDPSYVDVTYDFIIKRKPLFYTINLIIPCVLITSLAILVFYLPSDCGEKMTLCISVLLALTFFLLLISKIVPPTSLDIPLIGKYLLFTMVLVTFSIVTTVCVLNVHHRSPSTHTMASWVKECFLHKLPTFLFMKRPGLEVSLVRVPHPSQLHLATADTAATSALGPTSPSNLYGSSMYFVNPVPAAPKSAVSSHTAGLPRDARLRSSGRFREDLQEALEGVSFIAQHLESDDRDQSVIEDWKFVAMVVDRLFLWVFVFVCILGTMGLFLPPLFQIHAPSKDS
UniProt P09483: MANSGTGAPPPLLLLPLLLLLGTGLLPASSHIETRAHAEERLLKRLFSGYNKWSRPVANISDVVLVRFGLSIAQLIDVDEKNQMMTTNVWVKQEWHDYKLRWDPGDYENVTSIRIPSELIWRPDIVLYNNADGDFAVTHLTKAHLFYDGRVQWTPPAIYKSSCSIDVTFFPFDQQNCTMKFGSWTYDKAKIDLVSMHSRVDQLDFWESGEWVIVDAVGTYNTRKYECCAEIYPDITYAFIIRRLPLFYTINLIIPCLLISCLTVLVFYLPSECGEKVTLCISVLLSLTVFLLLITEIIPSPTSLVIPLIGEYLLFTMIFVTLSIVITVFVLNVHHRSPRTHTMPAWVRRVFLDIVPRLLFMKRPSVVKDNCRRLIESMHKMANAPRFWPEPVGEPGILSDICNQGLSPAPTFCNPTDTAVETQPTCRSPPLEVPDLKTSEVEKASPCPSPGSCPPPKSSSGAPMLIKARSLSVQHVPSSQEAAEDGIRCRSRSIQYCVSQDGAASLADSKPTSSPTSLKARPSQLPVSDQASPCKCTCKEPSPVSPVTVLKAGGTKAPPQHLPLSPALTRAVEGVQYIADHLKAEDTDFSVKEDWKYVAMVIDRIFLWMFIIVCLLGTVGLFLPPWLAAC
UniProt P12390: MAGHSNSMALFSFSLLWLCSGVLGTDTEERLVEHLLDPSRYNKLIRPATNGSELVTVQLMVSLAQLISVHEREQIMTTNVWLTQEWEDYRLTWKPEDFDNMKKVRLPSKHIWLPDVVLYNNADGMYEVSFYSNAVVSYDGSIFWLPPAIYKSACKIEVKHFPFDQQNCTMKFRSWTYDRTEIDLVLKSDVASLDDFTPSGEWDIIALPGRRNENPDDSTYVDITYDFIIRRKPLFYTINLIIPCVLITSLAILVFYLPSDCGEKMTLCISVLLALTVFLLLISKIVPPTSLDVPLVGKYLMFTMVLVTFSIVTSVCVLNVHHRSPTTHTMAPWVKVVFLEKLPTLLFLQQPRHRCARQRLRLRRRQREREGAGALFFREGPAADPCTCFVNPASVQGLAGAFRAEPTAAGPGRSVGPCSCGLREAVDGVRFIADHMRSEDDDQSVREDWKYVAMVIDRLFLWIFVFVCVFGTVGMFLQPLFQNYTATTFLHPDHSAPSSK

What was measured:
[1] = target: Neuronal acetylcholine receptor; alpha3/beta4 (Rattus norvegicus) (UniProt P04757+P12392); assay: Positive allosteric modulation of rat alpha3beta4 nAChR expressed in xenopus laevis oocytes assessed as increase in acetylcholine induced channel current amplitude at 10 uM at -90 mV holding potential measured after 24 to 72 hrs by two-electrode voltage clamp recording method; type: cell-based; conditions: Oocyte, time 24-72 hrs
[2] = target: Neuronal acetylcholine receptor; alpha4/beta2 (Rattus norvegicus) (UniProt P09483+P12390); assay: Positive allosteric modulation of rat alpha4beta2 nAChR expressed in xenopus laevis oocytes assessed as increase in acetylcholine induced channel current amplitude at 10 uM at -90 mV holding potential measured after 24 to 72 hrs by two-electrode voltage clamp recording method; type: cell-based; conditions: Oocyte, time 24-72 hrs

Compound: Cc1cccc(Cl)c1NC(=O)c1sc(Nc2ccc(F)c(Cl)c2)nc1N
- Activity [1]: inactive
- Activity [2]: inactive

Activity calls are given as the source filed them. The calls are words filed in the database; no cut-off is given here.
